From patent publication US20140112930A1 (published 2014)

Chains of the proteins cited; added tags and fusions are not shown. Chains listed by the source or under a name are the forms on record and can include a tag or linker.
Dimeric Mouse Ang-2FD conjugated to human IgG1, one chain, as listed by the source limits assumed: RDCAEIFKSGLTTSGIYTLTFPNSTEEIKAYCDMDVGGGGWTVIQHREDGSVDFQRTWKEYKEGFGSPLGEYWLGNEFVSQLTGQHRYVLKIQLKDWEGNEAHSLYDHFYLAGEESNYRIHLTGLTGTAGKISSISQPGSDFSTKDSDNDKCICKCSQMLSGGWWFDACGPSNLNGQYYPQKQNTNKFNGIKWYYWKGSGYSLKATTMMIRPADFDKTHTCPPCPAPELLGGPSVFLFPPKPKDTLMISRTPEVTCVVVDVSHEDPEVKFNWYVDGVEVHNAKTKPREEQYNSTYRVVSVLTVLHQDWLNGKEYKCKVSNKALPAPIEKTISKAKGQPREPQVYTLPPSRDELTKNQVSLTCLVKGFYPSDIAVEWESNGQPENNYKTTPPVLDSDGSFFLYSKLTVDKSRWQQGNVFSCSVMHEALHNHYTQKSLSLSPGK

Target: T1, Dimeric Mouse Ang-2FD conjugated to human IgG1 (mouse (Mus musculus); human)
T1 construct: also called Mouse Ang-2FD-hFc
Assay: SPR, captured Ab, RT

Kd: 0.158 nM
B1: H1H744N (antibody, V domains shown)
VH: QVQLVQSGVEVKKPGASVKVSCKTSGYTFSNNGFSWVRQAPGQGLEWLGWISGYNGNTNYAQKFQGRVTMTTDTSTSTAYMELRTLRSDDTAVYYCARDQDYSNFHWLDPWGQGTLVTVAS
VL: DIQMTQSPSSVSASVGDRVIITCRASQGLSSWLAWYQQKPGTAPKLLIHSASSLQTGVPSRFSGSGSGTEFALTINSLQPEDFGTYYCQQANSFPLTFGGGTRVEIK
